Sampled rows, rich in hits. Any-hit rate of the full collection: about 2.2%.
Yeast UUG start = alters start codon recognition fidelity in yeast. S. cerevisiae UUG-firefly luciferase reporter, luminescence/redox ratio. 350,000 tested, 0.13% active. activity score, % at 18.7 µM. AID 602363;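 active means replicate mean at a twofold rise or more, about +100% in these data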;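 further: firefly luciferase made from a UUG start codon reports start codon fidelity; reporter light over untreated wells divided by growth signal over untreated wells; some hits fall short of that in this replicate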
PDI inh = inhibitors of human protein disulfide isomerase; P07237; PDI insulin aggregation turbidity, A650, 90 min; inhibition, % at 10 µM; 0.052% of 350,000 active;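 active = mean inhibition across replicates of 30% or more, whatever share of single replicates reach that level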
ERp5 inh = ERp5 (human) disulfide isomerase inhibition | inhibition, % at 9.99 µM | Q15084 | 0.05% of 350,000 active | ERp5 insulin aggregation, absorbance 650 nm, 90 min;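 active = mean replicate inhibition above about 25%, with every replicate also reaching it, limit read from the data, passing the limit was not always enough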
SIRT5 block = blocks human SIRT5 desuccinylation of peptide. Q9NXA8. Purified SirT5, succinyl-peptide AMC, trypsin-coupled fluorescence. inhibition, % at 15 µM. 1.1% of 330,000 active. AID 652115; in the data active = inhibition above about 15%
S100A4 MyoIIA = S100A4-myosin IIA interaction inhibition | 0.14% of 360,000 active | S100A4/TAMRA-MyoIIA peptide fluorescence polarization | P26447 | inhibition, % at 10.7 µM;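 active = mean inhibition of at least 70% across replicates, with every replicate also reaching that level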
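Test system: S100A4 monomer protein. Medium: HEPES buffer with Ca2+, pH 7.2. Reagent: fluorescent myosin IIA peptide, 5 nM. Compound dosing: single-point compound testing. Timing: 5 min between mix addition and reading. Benchmarks: DMSO neutral and TFP positive wells.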
FGF22 binding = FGF22 (human) thermal shift binding. 1.5% of 340,000 active. Q9HCT0. recombinant FGF22 thermal shift, SYPRO orange fluorescence; percent of sucrose octasulfate shift, DMSO zero. AID 651658. activity (Tm shift, normalised), % at 9.99 µM;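 active = mean Tm shift, scaled 0 neutral to 100 positive control, at about 1.3% or above, every replicate too, limit read from the data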
* marks the source's active call; other numbers are inactive results; x = no result given.

SMILES	Yeast UUG start	PDI inh	ERp5 inh	SIRT5 block	S100A4 MyoIIA	FGF22 binding
CO[C@@H]1CN(C)C(=O)c2ccc(NS(=O)(=O)CC(F)(F)F)cc2OC[C@@H](C)N(C)C[C@@H]1C	x	x	8	-4	-2	0
O=c1nc(Oc2ccccc2)nc2ncccn12	x	-8	2	x	-1	43*
COc1ccccc1-c1ccc2c(c1)[C@@H]1[C@@H](CCN1C(=O)c1ccc3c(c1)OCO3)[C@H](CO)N2	-18	x	3	0	x	0
CO[C@@H]1CN(C)C(=O)c2ccc(NC(=O)c3ccccc3)cc2OC[C@H](C)N(C(C)=O)C[C@@H]1C	x	x	6	1	41	0
O=C(O)c1ccc(-c2nc(-c3ccc(Cl)cc3Cl)cs2)cc1	555*	-34	2	0	1	0
COc1ccc2c3c([nH]c2c1)[C@H](CO)N(C(=O)CN1CCOCC1)CC31CCN(C(C)=O)CC1	x	x	x	x	x	0
O=C(c1ccccc1)N1CC2(C1)[C@@H](c1ccccc1)[C@H](CO)N2CC1CC1	x	x	-3	0	-3	0
O=C(COC(=O)c1cc(Br)ccc1Cl)NC(=O)NCc1ccccc1	x	-13	-5	-2	6	44*
O=C(COC(=O)c1ccccc1Cl)NC(=O)NCc1ccccc1	x	1	-3	-4	-1	0
CC(C)c1nc(SCC(=O)c2ccc(F)cc2)c2ccccc2n1	x	-5	0	-1	-1	43*
Cc1ccc(C(=O)CSc2nc(C(C)C)nc3ccccc23)cc1	-17	13	5	-1	-2	0
CN1CCN(c2ccc(CNC(=O)C3Cc4c(-c5ccc(Cl)cc5)ccnc4O3)cc2)CC1 (stereo not drawn)	-10	-11	-3	x	-2	43*
CC(=O)Nc1cccc(-c2ccnc3c2CC(C(=O)NCc2ccc(F)c(F)c2)O3)c1 (stereo not drawn)	-7	-3	-9	15*	1	0
CC(=O)Nc1cccc(-c2ccnc3c2CC(C(=O)NCc2ccncc2)O3)c1 (stereo not drawn)	-25	-1	-1	x	-6	0
COc1ccc2c3c(n(C)c2c1)[C@H](CO)N(C(=O)c1cnccn1)CC31CN(C(=O)c2ccncc2)C1	x	x	x	x	x	0

Among those listed so far, these have fluorine.
SMILES	Yeast UUG start	PDI inh	ERp5 inh	SIRT5 block	S100A4 MyoIIA	FGF22 binding
CO[C@@H]1CN(C)C(=O)c2ccc(NS(=O)(=O)CC(F)(F)F)cc2OC[C@@H](C)N(C)C[C@@H]1C	x	x	8	-4	-2	0
CC(C)c1nc(SCC(=O)c2ccc(F)cc2)c2ccccc2n1	x	-5	0	-1	-1	43*
CC(=O)Nc1cccc(-c2ccnc3c2CC(C(=O)NCc2ccc(F)c(F)c2)O3)c1 (stereo not drawn)	-7	-3	-9	15*	1	0

Later entries
SMILES	Yeast UUG start	PDI inh	ERp5 inh	SIRT5 block	S100A4 MyoIIA	FGF22 binding
CCOC(=O)c1cnc2nc(C)nn2c1N	-17	-2	3	69*	-4	43*
O=C(CS(=O)(=O)c1ccc(Cl)c(Cl)c1)Nc1ccccc1Cl	-16	1	x	x	x	x
COc1ccc(S(=O)(=O)CC(=O)Nc2ccccc2Cl)cc1	-13	6	4	-1	0	43*
Nc1ccccc1SCc1ccccc1	14	2	-2	-2	-4	43*
COc1cc(/C=C/c2cc[n+](C)cc2)ccc1OCC(=O)Nc1ccccc1	1	8	-1	-2	4	0
C/C=C/c1ccc(OCC(=O)Nc2ccc(C(N)=O)cc2)c(OC)c1	x	-4	8	-5	-4	44*
Cc1cc(/C=N/Nc2ccc([N+](=O)[O-])cn2)c(C)n1-c1ccc(C(=O)O)cc1	x	14	6	32*	0	0
C[C@H](CO)N1C[C@H](C)[C@@H](CN(C)S(=O)(=O)c2ccc(F)cc2)Oc2ccc(NC(=O)Nc3ccc(C(F)(F)F)cc3)cc2C1=O	-31	-4	-5	14	-7	0
Cc1ccc(S(=O)(=O)N(C)C[C@@H]2Oc3ccc(NC(=O)Nc4c(C)noc4C)cc3C(=O)N([C@H](C)CO)C[C@@H]2C)cc1	-13	x	-1	16*	-7	0
C[C@@H]1CN([C@H](C)CO)C(=O)c2cc(NC(=O)Nc3ccc(C(F)(F)F)cc3)ccc2O[C@@H]1CN(C)S(=O)(=O)c1ccc(F)cc1	-4	x	29*	7	-2	1
C[C@@H]1CN([C@@H](C)CO)C(=O)c2cc(NC(=O)Nc3ccc(F)cc3)ccc2O[C@@H]1CN(C)S(=O)(=O)c1ccc(Cl)cc1	1	x	-1	19*	-3	0
COc1ccc(S(=O)(=O)N(C)C[C@H]2Oc3ccc(NC(=O)Nc4ccc(F)cc4)cc3C(=O)N([C@H](C)CO)C[C@H]2C)cc1	-2	x	5	21*	-8	0
C[C@H]1CN([C@@H](C)CO)C(=O)c2cc(NC(=O)Nc3ccc(F)cc3)ccc2O[C@@H]1CN(C)S(=O)(=O)c1ccc(Cl)cc1	-9	x	-4	1	-3	0

Compound activity as filed in PubChem BioAssay.
